{"sequences": {"note": "Sequences of proteins named here, by UniProt entry; tags and fusion partners are left off. A change or cut given only in a name is not applied to a line headed by its entry.", "UniProt Q12809": "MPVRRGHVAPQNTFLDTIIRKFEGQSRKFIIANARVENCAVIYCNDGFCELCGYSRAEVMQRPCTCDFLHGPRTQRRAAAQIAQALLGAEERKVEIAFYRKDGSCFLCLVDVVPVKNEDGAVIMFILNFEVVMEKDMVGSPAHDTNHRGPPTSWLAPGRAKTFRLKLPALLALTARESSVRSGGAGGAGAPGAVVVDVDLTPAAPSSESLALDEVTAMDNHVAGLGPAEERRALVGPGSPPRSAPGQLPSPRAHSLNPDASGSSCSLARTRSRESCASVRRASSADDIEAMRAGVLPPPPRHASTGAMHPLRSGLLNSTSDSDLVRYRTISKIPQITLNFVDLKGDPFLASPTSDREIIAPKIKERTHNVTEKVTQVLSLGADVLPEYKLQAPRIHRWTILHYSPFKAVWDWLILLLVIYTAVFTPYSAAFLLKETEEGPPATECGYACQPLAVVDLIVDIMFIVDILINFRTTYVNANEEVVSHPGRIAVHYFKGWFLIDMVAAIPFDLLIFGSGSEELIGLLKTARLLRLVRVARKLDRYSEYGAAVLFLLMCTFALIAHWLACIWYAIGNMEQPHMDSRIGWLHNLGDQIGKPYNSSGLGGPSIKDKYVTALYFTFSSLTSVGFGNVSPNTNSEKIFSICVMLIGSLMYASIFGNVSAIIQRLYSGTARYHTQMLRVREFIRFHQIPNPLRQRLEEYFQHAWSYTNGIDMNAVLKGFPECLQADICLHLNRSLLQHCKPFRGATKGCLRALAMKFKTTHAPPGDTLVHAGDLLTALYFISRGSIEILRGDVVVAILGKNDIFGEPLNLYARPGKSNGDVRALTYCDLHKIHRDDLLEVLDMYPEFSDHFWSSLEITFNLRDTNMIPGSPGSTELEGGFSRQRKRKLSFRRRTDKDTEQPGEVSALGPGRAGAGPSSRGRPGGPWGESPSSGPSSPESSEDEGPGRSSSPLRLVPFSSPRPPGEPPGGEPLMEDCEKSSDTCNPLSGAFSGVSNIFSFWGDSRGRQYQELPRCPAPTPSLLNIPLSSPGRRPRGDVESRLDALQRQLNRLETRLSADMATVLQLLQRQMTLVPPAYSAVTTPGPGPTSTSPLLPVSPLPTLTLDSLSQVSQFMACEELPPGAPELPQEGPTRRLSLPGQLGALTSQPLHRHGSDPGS"}, "source": "PubChem BioAssay AID720551", "about": "(National Center for Advancing Translational Sciences (NCATS), 2013)", "note": "Only a part is listed here, and it is no random draw. Calls of active or inactive are those of the source.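 Rule for the calls: active = maximum activity change below -70%; inconclusive = maximum activity change between -70% and -50%; inactive = maximum activity change above -50%.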 % is set by controls: 0 for no effect and ±100 for the full control effect."}
{"target": "Voltage-gated inwardly rectifying potassium channel KCNH2 (Homo sapiens) (UniProt Q12809)", "experiment": "qHTS for Inhibitors of KCHN2 3.1: Wildtype qHTS", "details": "U2OS, BacMam KCNH2, thallium flux FluxOr; at 1.84 µM, stronger effect = lower value", "source_text": "Many antipsychotic drugs that inhibit the neurotransmitter dopamine also bind to hERG1 channel which might help explain their antipsychotic activity but also produces cardiac side effects. The discovery of the novel KCNH2 3.1 isoform offers a potential new target for the development of antipsychotic drugs without cardiac side effects. This proposal will use a high throughput thallium flux assay developed for KCNH2 to screen compounds that modulate the activity of KCNH2 3.1. The wild type KCNH2 channel will also be screened in parallel to help define the selective modulators of this KCNH2 3.1 potassium channel. The resulting compounds will be validated in electrophysiology experiments. The availability of animal models will allow future testing in vivo for effects on memory and other aspects of animal physiology linked with psychosis. NIH Chemical Genomics Center [NCGC] NIH Molecular Libraries Probe Centers Network [MLPCN] MLPCN Grant: MH096539 Assay Submitter (PI): James Barrow, Johns Hopkins University, Lieber Institute for Brain Development\nU2OS cells were resuspended in cell media containing 10% fetal calf serum (FCS) at a concentration of 2 million cells / mL. The solution was treated with the Wild-type virus at 2.03 x 10^8 / mL and allowed to incubate at room temperature in the dark. After 4 hours of incubation, DMEM + 10% fetal bovine serum (FBS) was added to the cell solution. Three microliter was then dispensed into a 1536 tissue culture treated black assay plates which were incubated overnight at 37 C. Two microliter of loading buffer (HBSS + HEPES + Red40 dye quencher + FluxOr dye) was added and the assay plates were incubated for 45 min at room temperature in the dark. […] A stimulation buffer was added to the plate and the second kinetic read (2 min) was obtained. The rate constant was calculated from the kinetic reads and normalized to the positive and negative DMSO controls."}
{"smiles": "O=[N+]([O-])c1cc([N+](=O)[O-])c(-c2ccn[nH]2)s1", "activity change": "inactive: -17%"}
{"smiles": "O=C(OC1CN2CCC1CC2)C12CC3CC(CC(C3)C1)C2", "note": "(stereo not given)", "activity change": "inactive: 73.4%"}
{"smiles": "Cc1cc(=O)[nH]c(N[N+](=O)[O-])n1", "activity change": "inactive: -8.93%"}
{"smiles": "COc1ccc2nc(NP(=O)(c3ccccc3)c3ccccc3)sc2c1", "activity change": "inactive: 5.27%"}
{"smiles": "COc1cc(I)ccc1[As](=O)(O)O", "activity change": "inactive: -0.808%"}
{"smiles": "O=P1(N(CCCl)CCCl)Nc2ccccc2N1", "activity change": "inactive: -8.5%"}
{"smiles": "COc1ccc(N/C(=N/P(=O)(N2CCOCC2)N2CCOCC2)N2CCOCC2)cc1", "activity change": "inactive: -8.66%"}
{"smiles": "O=[N+]([O-])c1cc(Oc2ccc([N+](=O)[O-])cc2C(F)(F)F)cc([N+](=O)[O-])c1", "activity change": "inactive: 14.6%"}
{"smiles": "COc1cc(C(=O)NCC2(N3CCOCC3)CCCCC2)cc(Cl)c1OC(C)C", "activity change": "inactive: 3.88%"}
{"smiles": "O=[As](O)(O)c1cccnc1", "activity change": "inactive: -2.64%"}
{"smiles": "CS(=O)(=O)c1ccc(Cl)c(NC(=O)COC(=O)C(O)(c2ccccc2)c2ccccc2)c1", "activity change": "inactive: -1.02%"}
{"smiles": "O=C(OC1CN2CCC1CC2)c1ccc(Cl)cc1", "note": "(stereo not given)", "activity change": "inactive: 4.89%"}
{"smiles": "O=[As](O)(c1cccc(O)c1)c1cccc(O)c1", "activity change": "inactive: -9.91%"}
{"smiles": "Cc1cccc(OCC(=O)OC2CN3CCC2CC3)c1", "note": "(stereo not given)", "activity change": "inactive: 9.45%"}
{"smiles": "CCCOP(=S)(Nc1nc(N)cc(=O)[nH]1)OCCC", "activity change": "inactive: 2.51%"}
{"smiles": "Cc1ccc(NCCc2c([N+](=O)[O-])cc([N+](=O)[O-])cc2[N+](=O)[O-])cc1", "activity change": "inactive: -4.03%"}
{"smiles": "Nc1cccc2c([As](=O)(O)O)cccc12", "activity change": "inactive: 8.01%"}
{"smiles": "COc1cc(C2NCCC3(OCCO3)C2(C)C)cc(OC)c1OC", "note": "(stereo not given)", "activity change": "inactive: -6.66%"}
{"smiles": "CCOP(=O)(Nc1cccc2ccccc12)OCC", "activity change": "inactive"}
{"smiles": "CS(=O)(=O)c1cc([N+](=O)[O-])c2no[n+]([O-])c2c1", "activity change": "inactive: -13.1%"}
{"smiles": "CCOP1(=S)c2c(C)nn(CCC#N)c2N=C(c2ccccc2F)N1C", "note": "(stereo not given)", "activity change": "inactive: -1.52%"}
{"smiles": "O=P(Nc1nccs1)(c1ccccc1)c1nc2ccccc2s1", "note": "(stereo not given)", "activity change": "inactive: -6.92%"}
{"smiles": "Nc1ccccc1[As](=O)(O)c1ccccc1", "activity change": "inactive: -1.61%"}
{"smiles": "O=C(O)COc1ccc([As](=O)(O)O)cc1[N+](=O)[O-]", "activity change": "inactive: 7.67%"}
{"smiles": "NC(=O)Nc1ccc([As](=O)(O)O)cc1", "activity change": "inactive: 5.53%"}
{"smiles": "CN(C)C(=O)c1cc([N+](=O)[O-])cc2c1-c1c(cc([N+](=O)[O-])cc1[N+](=O)[O-])C2=O", "activity change": "inactive: 0.947%"}
{"smiles": "O=[N+]([O-])c1ccc2c(c1)nnn2O", "activity change": "inactive: 3.78%"}
{"smiles": "CN(C(=O)Cc1ccc(Cl)c(Cl)c1)[C@H]1CC[C@@]2(CCCO2)C[C@@H]1N1CCCC1", "activity change": "inactive: 53.7%"}
{"smiles": "N#CCCN(C(=O)COC(=O)C(O)(c1ccccc1)c1ccccc1)c1ccc(F)cc1", "activity change": "inactive: 14%"}
{"smiles": "CN(C(=O)Cc1ccccc1)[C@@H]1CC[C@]2(CCCO2)C[C@H]1N1CCCC1", "activity change": "inactive: -11.5%"}
{"smiles": "CCOP1(=S)c2c(C)nn(CCC#N)c2N=C(c2ccc(F)cc2)N1C", "note": "(stereo not given)", "activity change": "inactive: 18.4%"}
{"smiles": "Cc1nn(-c2ccccc2)c2c1P(=O)(N1CCOCC1)N(C)C(c1ccccc1)=N2", "note": "(stereo not given)", "activity change": "inactive: -1.91%"}
{"smiles": "CC1CCC(C(C)C)C(OP(=O)(Nc2ccccn2)c2ccccc2)C1", "note": "(stereo not given)", "activity change": "inactive: -21.1%"}
{"smiles": "Cc1ccc(C(=O)OC2CN3CCC2CC3)cc1", "note": "(stereo not given)", "activity change": "inactive: 4.92%"}
{"smiles": "O=C(/C=C/c1ccccc1)OC1CN2CCC1CC2", "note": "(stereo not given)", "activity change": "inactive: 9.07%"}
{"smiles": "CCCC1OP(=O)(Nc2ccccc2)OCC1CC", "note": "(stereo not given)", "activity change": "inactive: -6%"}
{"smiles": "CN(C)C1(CNC(=O)c2ccc(S(C)(=O)=O)cc2)CCCCC1", "activity change": "inactive: 12.5%"}
{"smiles": "O=P1(Nc2ncccn2)COc2ccccc2OC1", "activity change": "inactive: 3.98%"}
{"smiles": "O=P1(Nc2ccc(Br)cn2)COc2ccccc2OC1", "activity change": "inactive: 6.3%"}
{"smiles": "NS(=O)(=O)c1cccc(NC(=O)COC(=O)C(O)(c2ccccc2)c2ccccc2)c1", "activity change": "inactive: -17.8%"}
{"smiles": "Cc1ccc(OCC(=O)OC2CN3CCC2CC3)cc1", "note": "(stereo not given)", "activity change": "inactive: 25.1%"}
{"smiles": "O=[As](O)(c1cccs1)c1cccs1", "activity change": "inactive: -1.07%"}
{"smiles": "Nc1cccc([As](=O)(O)c2ccccc2)c1", "activity change": "inactive: -4.92%"}
{"smiles": "CN(CCCl)Cc1cc(Cl)c(NC2=NCCN2)c(Cl)c1", "activity change": "inactive: 36.9%"}
{"smiles": "CCOP(=O)(Nc1ccc(C)cn1)OCC", "activity change": "inactive: 8.19%"}
{"smiles": "O=P1(Nc2ccccn2)COc2ccccc2OC1", "activity change": "inactive: -0.505%"}
{"smiles": "CCC1=CC2Cc3nc4ccc(Cl)cc4c(N)c3C(C1)C2", "note": "(stereo not given)", "activity change": "inactive: -5.57%"}
{"smiles": "CCOP(=O)(NC(=NC(C)c1ccccc1)NC(C)c1ccccc1)OCC", "note": "(stereo not given)", "activity change": "inactive: -29.8%"}
{"smiles": "O=P1(N(CCCl)CCCl)NCCC(C(F)(F)F)O1", "note": "(stereo not given)", "activity change": "inactive: -2.07%"}
{"smiles": "Clc1n[nH]nc1-c1nn[nH][15n]1", "activity change": "inactive: 2.23%"}
